Key:
Assay type in all cases: binding
BCL-2 [1] = target: T1, BCL-2 (Homo sapiens, UniProt P10415); assay: Fluorescence polarization (FP) with Fluorescein-PUMA, BCL-2; conditions: Fluorescein-PUMA as binder; bottom limit for the FP assay 1.2 nM; read-out: FP_BCL-2_KI
BCL-2 [2] = target: T1, BCL-2; assay: Isothermal titration calorimetry (ITC), BCL-2; conditions: 25 °C; ND = not determinable (too potent); read-out: ITC_BCL-2_KD
Procedure: The protein was dialyzed prior to use in 2 L of 25 mM HEPES, 150 mM NaCl, 5% glycerol (v/v), 0.5% MTG (v/v) at pH 7.4 for 3 hours at room temperature. The protein was dialyzed using a 3.5 K MWCO Slide-A-Lyzer™ cassette. The protein solution was recovered, spin-filtered through a […] frit. The filtered protein was quantified by UV absorbance at 280 nm using an extinction coefficient of 36440 M^-1cm^-1. 500 ml of dialysis buffer was retained (remainder used to rinse out SCHOT bottle) and degassed for a minimum of 30 mins under vacuum with constant stirring. Typically, 50 μM protein was titrated from the syringe into the cell containing 5 μM compound. The solutions were carefully matched to ensure same solvent and buffer conditions were present in both syringe and cell (this is to minimize heat of dilution effects). The final solution was the dialysis buffer plus 1% DMSO and 0.05% P20. The experiment was performed over 13 injections with stirring at 1000 rpm, gain setting low and at 25° C. Pure water was used in the reference cell. The first injection was 0.5 μl with a duration of 1 second with a gap of 150 seconds until the further 12 injections of 3.05 μl with a duration 6.1 seconds and a 240 second interval between injections. Data was analyzed using the vendor supplied software, PEAQ-ITC Analysis Software. The data model used was the single site model. […]

Amino acid sequences for entries named in this document (tags omitted).
UniProt P10415, whole entry: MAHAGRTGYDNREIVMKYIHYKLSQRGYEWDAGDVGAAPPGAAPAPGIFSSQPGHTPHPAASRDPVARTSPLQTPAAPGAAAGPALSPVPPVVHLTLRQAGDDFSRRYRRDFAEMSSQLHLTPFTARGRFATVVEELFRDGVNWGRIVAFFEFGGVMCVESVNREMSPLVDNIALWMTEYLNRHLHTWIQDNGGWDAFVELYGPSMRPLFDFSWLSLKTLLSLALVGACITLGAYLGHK

BCL-2 [3] = target: T1, BCL-2; assay: Surface plasmon resonance affinity in solution (SPR AIS), BCL-2; conditions: read-out: SPR AIS_BCL-2_KD

Ki (BCL-2 [1]): 4.5 nM | Kd (BCL-2 [2]): 3.7 nM | Kd (BCL-2 [3]): 2.1 nM
Compound: CC1(C)CCC(c2ccc(Cl)cc2)=C(CN2CCN(c3ccc(C(=O)NS(=O)(=O)c4ccc(N[C@H](CCN5CCOCC5)CSc5ccccc5)c(S(=O)(=O)C(F)(F)F)c4)cc3)CC2)C1 [ABT-263, reference compound]

Reference: publication PMC5929447, “S55746 is a novel orally active BCL-2 selective and potent inhibitor that impairs hematological tumor growth” (Oncotarget, 2018)
